Protein sequences, listed by entry. Tags and fused reporters are not part of them. Lines headed by an entry give the natural chain unless they say otherwise; changes in a name come on top.
UniProt Q9Y6L6: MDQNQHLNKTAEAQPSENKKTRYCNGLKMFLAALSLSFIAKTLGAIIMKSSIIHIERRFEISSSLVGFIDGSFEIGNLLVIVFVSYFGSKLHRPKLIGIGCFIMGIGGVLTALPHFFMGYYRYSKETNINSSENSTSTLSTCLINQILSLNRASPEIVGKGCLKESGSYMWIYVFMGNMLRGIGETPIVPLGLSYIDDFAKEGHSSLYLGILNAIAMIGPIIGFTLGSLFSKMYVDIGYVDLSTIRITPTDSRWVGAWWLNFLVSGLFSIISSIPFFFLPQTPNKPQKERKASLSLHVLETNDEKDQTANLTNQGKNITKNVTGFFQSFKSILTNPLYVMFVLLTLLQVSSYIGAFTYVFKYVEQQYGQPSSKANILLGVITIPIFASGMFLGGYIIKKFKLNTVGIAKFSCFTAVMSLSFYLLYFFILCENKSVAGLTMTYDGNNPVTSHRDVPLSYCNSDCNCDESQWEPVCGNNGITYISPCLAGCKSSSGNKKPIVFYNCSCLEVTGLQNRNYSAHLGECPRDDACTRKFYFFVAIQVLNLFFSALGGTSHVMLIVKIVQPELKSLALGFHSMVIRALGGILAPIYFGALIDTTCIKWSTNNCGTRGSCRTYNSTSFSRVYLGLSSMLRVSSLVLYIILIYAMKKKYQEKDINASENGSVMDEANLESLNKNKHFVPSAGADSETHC

In ChEMBL document CHEMBL3407465, “Interaction of human organic anion transporter polypeptides 1B1 and 1B3 with antineoplastic compounds” (Eur J Med Chem, 2015):

Biological target: Solute carrier organic anion transporter family member 1B1 (Homo sapiens, UniProt Q9Y6L6)
Experiment: Stimulation of human OATP1B1-mediated [3H]estrone 3-sulfate at 100 uM after 5 mins relative to control

## O=P1(N(CCCl)CCCl)OCCCN1CCCl (stereo unspecified)
  Activity: 13.1%
